Experiments:
Type in all cases: physicochemical
[1] = Storage stability: XRPD and HPLC analysis post storage at 40° C./75% RH or 25° C./97% RH; conditions: for HPLC purity post storage / XRPD analysis / appearance post storage: 1 week
Text: Samples were run under ambient conditions as flat plate specimens using powder as received. The sample was gently packed into a cavity cut into polished, zero-background (510) silicon wafer. The sample was rotated in its own plane during analysis.

[2] = GVS (Gravimetric Vapor Sorption) and XRPD analysis post GVS
VT-XRPD = test: VT-XRPD

For “Tebipenem Pivoxil HBr Methane Sulfonate Salt (MSA) [Example 7]”, the “HPLC purity post storage” value ([1]; 25° C./97% RH) was 96.5%, the “XRPD analysis / appearance post storage” value ([1]; 25° C./97% RH) was “week, and was a powder post-” and the “XRPD analysis / appearance post storage” value ([1]; 40° C./75% RH and 25° C./97% RH (both conditions)) was “Unchanged by XPRD after 1”. For the same substance, the Appearance post storage ([1]; 40° C./75% RH and 25° C./97% RH for 1-4 weeks, within 2 weeks) was “deliquesced within 2 weeks”, the “XRPD analysis / appearance post storage” value ([1]; 40° C./75% RH) was 25/97 but a gum post-40/75 and the “HPLC purity post storage” value ([1]; 40° C./75% RH, HPLC method not stated at the place) was 95.5%. The GVS uptake [2] was “Sample is hygroscopic. 6.2%”, the “Hygroscopicity by GVS” value [2] was “Sample is hygroscopic. 6.2%” and the GVS isotherm step ([2]; 0 to 10% RH) was “to 10% RH (3.0% wt.) and 80”. For the same substance, the GVS isotherm step ([2]; 80 to 90% RH) was 1.4 % wt and the “VT-XRPD form changes upon heating” value (VT-XRPD) was “Some changes upon heating”.
